For one molecule, EC50 results are on record in ChEMBL document CHEMBL3286334.

Sequences of proteins named here, by UniProt entry; tags and fusion partners are left off.
UniProt P32245, whole entry C271Y: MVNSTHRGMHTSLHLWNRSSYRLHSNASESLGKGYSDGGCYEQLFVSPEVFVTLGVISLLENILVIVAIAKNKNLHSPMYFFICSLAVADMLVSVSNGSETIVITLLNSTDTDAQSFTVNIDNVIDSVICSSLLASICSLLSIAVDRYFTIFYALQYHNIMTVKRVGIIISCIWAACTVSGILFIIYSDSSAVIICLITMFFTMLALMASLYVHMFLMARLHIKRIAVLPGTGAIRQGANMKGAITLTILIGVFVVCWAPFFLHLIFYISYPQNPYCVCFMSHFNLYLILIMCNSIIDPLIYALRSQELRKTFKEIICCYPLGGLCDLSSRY

The experiment deals with Melanocortin receptor 4 (Homo sapiens, UniProt P32245, C271Y). The experiment can be described thus: Agonist activity at human melanocortin-4 receptor C271Y mutant expressed in HEK293 cells co-transfected with CRE/beta-galactosidase reporter gene assessed as stimulatory response after 6 hrs. In kind it is functional, cell-based.

Structures are written as SMILES.

With `CC(=O)N[C@@H](Cc1cnc[nH]1)C(=O)N[C@H](Cc1ccccc1)C(=O)N[C@@H](CCCN=C(N)N)C(=O)N[C@@H](Cc1c[nH]c2ccccc12)C(N)=O`, the EC50 amounted to 1.2 µM.
